According to patent US20260382690A1, “Dual-Domain Peptide for Depleting HMGB1 from the Circulation via Liver HSPG System” (published 2026):
“And” between values parts separate entries of the source, which are not always exact repeats. Identical values can stand only once.

Experiments:
[1] = system: GSNOR; assay: Facialis artery GSNOR protein immunoblot in treated SS mice; conditions: 2.72 mg/kg/d, 3 weeks; p<0.05
Description: Effects of hE-HMGB1-BP on facialis artery GSNOR in SS mice. SS mice were treated with hE-HMGB1-BP (2.72 mg/kg/d). After three weeks, SS mice were fully anesthetized, euthanized by exsanguination, and facialis arteries isolated by microdissection. The facialis arteries were snap frozen in liquid nitrogen, and proteins were isolated by homogenization using 200 μL of T-PER lysing buffer (Tissue Protein Extraction Reagent, Thermo Fisher Scientific, Milwaukee, WI; catalog #78510) in a bead lysis microcentrifuge tube (NextAdvance, Inc, Troy, NY; catalog #PINKE1-RNA). The homogenate was then concentrated by centrifugation using a spin column with a molecular cut-off of 10 kDa (Bio Vision, Milpitas, CA, catalog #1997-25). Proteins in concentrated facialis artery lysates were separated by polyacrylamide gel electrophoresis, transferred to nitrocellulose membranes, and membranes immunoblotted with anti-GSNOR/ADH5 rabbit polyclonal antibody (Proteintech Group Inc., Rosemont, IL; catalog #16379-1-AP) to determine GSNOR expression. GSNOR band intensities were normalized to total protein visualized with TGX Stain-Free gel technology (BioRad, Hercules, CA, catalog #4568094).
SS mice were treated with hE-HMGB1-BP (2.72 mg/kg/d). […]

[2] = system: CD31; assay: CD31 immunofluorescence in lung sections of treated SS mice; conditions: KYC 3 mg/kg/d, 3 weeks
Description: The right main bronchus was ligated with silk at the carina and snap-frozen in liquid nitrogen for immunoblot analysis after resection below the ligature. The trachea was then cannulated with an Instech Solomon (20G) stainless steel feeding tube (Plymouth Meeting, PA). After the trachea was securely ligated with silk, the left lobe was inflated with 10% neutral buffered formalin at 25 cm-H2O (2.4 kPa). After 1 h, the fixed lung was stored in 10% buffered formalin for 24 h and then embedded in paraffin for histology. Lung sections (5 um) were mounted on SuperFrost Plus-coated slides (Denville Scientific, Metuchen, NJ). Slides were deparaffinized, and sections stained with hematoxylin and eosin (H&E; Sigma, St. Louis, MO; catalog #MHS16 and HT110116) or immunostained for CD31 (R&D Systems, Minneapolis, MN; Catalog #AF3628) and GSNOR (Proteintech Group, Rosemont, IL; Catalog #11051-1-AP) for co-localization studies. Four to five immunofluorescence images were randomly captured for each lung section, the fluorescence intensities were analyzed for outliers and then averaged, and the average intensity was plotted as a single data point for each mouse. Protein SNOs were analyzed by Pierce S-Nitrosylation Western Blot Kit (Thermo Fisher, Milwaukee, WI; Catalog #90105). All other mentioned reagents and chemicals were purchased from Thermo Fisher (Milwaukee, WI). […]

| Structure (SMILES) | reduction of facialis artery GSNOR protein versus PBS-treated SS mice [1] | CD31+ cell staining difference from untreated AA mice [2] |
| --- | --- | --- |
| CC[C@H](C)[C@H](NC(=O)CNC(=O)[C@H](CCCCN)NC(=O)[C@@H](NC(=O)[C@H](CC(=O)O)NC(=O)[C@H](Cc1ccccc1)NC(=O)[C@H](CC(N)=O)NC(=O)[C@H](CC(N)=O)NC(=O)[C@H](C)NC(=O)[C@H](CO)NC(=O)[C@H](Cc1c[nH]cn1)NC(=O)[C@H](C)NC(=O)CNC(=O)CNC(=O)[C@H](CCCNC(=N)N)NC(=O)[C@H](CC(C)C)NC(=O)[C@H](CC(C)C)NC(=O)[C@H](CCCNC(=N)N)NC(=O)[C@H](CCCCN)NC(=O)[C@H](CCCNC(=N)N)NC(=O)[C@H](CC(C)C)NC(=O)[C@H](CCCCN)NC(=O)[C@H](CCCNC(=N)N)NC(=O)[C@H](CC(C)C)NC(C)=O)C(C)C)C(N)=O | 20% and ~ 20% | – |
| CC(=O)N[C@@H](CCCCN)C(=O)N[C@@H](Cc1ccc(O)cc1)C(=O)N[C@@H](CS)C(N)=O | – | ≤ 20% |
